One may read the inhibition as the change of the read-out against control, counted positive when it falls.

Protein sequences, listed by entry. Tags and fused reporters are not part of them.
UniProt P00519, whole entry, looked up: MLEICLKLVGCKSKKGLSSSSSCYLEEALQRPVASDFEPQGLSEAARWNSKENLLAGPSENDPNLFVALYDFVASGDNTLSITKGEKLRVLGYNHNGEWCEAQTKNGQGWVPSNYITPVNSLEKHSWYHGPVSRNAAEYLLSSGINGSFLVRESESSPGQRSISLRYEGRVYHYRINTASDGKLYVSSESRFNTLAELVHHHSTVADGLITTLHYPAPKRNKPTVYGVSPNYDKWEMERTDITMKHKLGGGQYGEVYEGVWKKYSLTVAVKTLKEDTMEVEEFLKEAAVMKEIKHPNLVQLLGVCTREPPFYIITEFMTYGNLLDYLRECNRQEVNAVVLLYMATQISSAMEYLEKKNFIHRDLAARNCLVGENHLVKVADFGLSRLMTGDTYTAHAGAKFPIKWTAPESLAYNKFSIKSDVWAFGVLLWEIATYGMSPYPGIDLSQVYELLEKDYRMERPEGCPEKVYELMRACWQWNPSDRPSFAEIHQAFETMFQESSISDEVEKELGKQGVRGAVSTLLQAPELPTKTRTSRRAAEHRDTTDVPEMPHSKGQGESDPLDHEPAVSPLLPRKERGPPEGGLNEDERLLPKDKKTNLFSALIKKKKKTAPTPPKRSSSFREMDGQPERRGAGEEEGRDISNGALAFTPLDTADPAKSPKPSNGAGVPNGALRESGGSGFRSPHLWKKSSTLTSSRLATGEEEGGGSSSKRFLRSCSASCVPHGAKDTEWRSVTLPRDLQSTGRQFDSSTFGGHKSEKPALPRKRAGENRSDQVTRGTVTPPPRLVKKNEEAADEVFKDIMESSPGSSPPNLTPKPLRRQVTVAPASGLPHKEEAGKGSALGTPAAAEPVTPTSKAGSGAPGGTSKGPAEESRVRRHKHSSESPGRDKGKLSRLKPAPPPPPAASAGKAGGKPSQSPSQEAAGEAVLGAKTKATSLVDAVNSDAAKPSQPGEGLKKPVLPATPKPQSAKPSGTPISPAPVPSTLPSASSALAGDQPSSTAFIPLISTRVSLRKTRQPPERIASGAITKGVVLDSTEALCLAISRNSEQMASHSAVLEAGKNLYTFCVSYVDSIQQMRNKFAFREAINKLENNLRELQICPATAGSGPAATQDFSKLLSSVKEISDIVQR
UniProt Q13671, whole entry, looked up: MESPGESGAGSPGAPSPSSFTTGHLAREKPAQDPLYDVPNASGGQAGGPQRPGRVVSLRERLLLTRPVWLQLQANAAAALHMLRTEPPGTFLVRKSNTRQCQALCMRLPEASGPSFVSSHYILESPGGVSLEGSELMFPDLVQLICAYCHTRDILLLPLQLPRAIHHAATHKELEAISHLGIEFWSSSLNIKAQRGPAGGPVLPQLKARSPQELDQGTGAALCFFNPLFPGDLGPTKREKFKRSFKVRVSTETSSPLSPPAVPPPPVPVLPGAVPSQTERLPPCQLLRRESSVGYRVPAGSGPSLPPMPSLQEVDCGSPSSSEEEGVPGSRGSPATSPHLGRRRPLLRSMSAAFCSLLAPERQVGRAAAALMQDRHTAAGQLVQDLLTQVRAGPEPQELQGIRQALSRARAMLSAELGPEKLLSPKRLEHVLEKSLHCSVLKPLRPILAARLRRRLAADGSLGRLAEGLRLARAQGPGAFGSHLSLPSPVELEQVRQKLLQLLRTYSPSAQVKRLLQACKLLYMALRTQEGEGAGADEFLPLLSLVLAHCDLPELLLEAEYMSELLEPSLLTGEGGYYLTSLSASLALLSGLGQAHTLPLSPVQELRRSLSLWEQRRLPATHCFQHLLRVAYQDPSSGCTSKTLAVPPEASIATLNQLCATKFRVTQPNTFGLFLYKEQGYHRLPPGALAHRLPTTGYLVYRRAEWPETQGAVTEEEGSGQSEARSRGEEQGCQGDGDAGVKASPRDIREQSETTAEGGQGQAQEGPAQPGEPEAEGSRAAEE

The entries are a selection whose mix differs from that of the whole data set. Active and inactive are the calls of the source. Rule as the data show it: active = inhibition above about 5% (passing the limit was not always enough); inactive = the rest.

For the assay, the target named is Tyrosine-protein kinase ABL1 (Homo sapiens) + Ras and Rab interactor 1 (Homo sapiens) (UniProt P00519+Q13671). Kind of assay: disruptors of human Abl and Rin1 association – biochemical, TR-FRET, primary screen (AID 588664). The note with it: TR-FRET Rin1/Abl binding, at 7.35 µM, hits give high values.
Turning to `Cc1ccccc1NC1(C#N)CCN(Cc2ccccc2)CC1`, the inhibition was inactive: 0.28%.
With `COc1ccc(C(c2nnnn2C2CCCCC2)N2CCC(n3c(=O)[nH]c4ccccc43)CC2)cc1` (stereo unspecified) the figure was inactive: 10.1%; with `CCN1CCC(Nc2cccc(F)c2)CC1`, inactive: 0.36%; with `CC(C)(C)n1nnnc1C(c1ccnc2ccccc12)N1CCC(n2c(=O)[nH]c3ccccc32)CC1` (stereo unspecified), inactive: 1.68%.
With `O=C(NCC1(N2CCCCC2)CCCCC1)c1ccco1` the figure was inactive: 0.38%; with `CN(C)c1ccc(C(=O)NCC2(N3CCCCC3)CCCCC2)cc1`, inactive: 2.22%; with `Cn1c(=O)[nH]cc(N(CCCl)CCCl)c1=O`, inactive: 1.55%.
With `COc1cc(OC)cc(C(=O)NCC2(N3CCCCC3)CCCCC2)c1` the figure was inactive: 2.12%; with `O=c1[nH]c2ccccc2n1C1CCN(C(c2ccnc3ccccc23)c2nnnn2C2CCCCC2)CC1` (stereo unspecified), inactive: 7.4%.
As to `CC(=O)N(c1ccccc1)C1CCNCC1`, the inhibition is inactive: 0.59%.
For `CCC(c1nnnn1C1CCCCC1)N1CCC(n2c(=O)[nH]c3ccccc32)CC1` (stereo unspecified), the inhibition was active: 52.3%.
With `Cc1ccc(NC2(C#N)CCN(Cc3ccccc3)CC2)cc1` the figure was inactive: 1.11%.
Regarding `Cc1ccc(C(=O)NCC2(N3CCCCC3)CCCCC2)o1`, the inhibition was inactive: 2.15%.
With `Fc1ccccc1NC1CCN(Cc2ccccc2)CC1` the figure was inactive: 4.45%; with `CCC(CO)(C(=O)OC1CN2CCC1CC2)c1ccccc1` (stereo unspecified), inactive: 3.41%.
With `COc1cccc(C(=O)N(c2cc(C)cc(C)c2)C2CCN(C(=O)OC(C)(C)C)CC2)c1` the figure was inactive: 2.59%; with `COc1cc(OC)cc(C(=O)NCC2(N3CCOCC3)CCCCC2)c1`, inactive: 0.45%.
Regarding `COc1cccc(C(c2nnnn2C2CCCC2)N2CCC(n3c(=O)[nH]c4ccccc43)CC2)c1OC` (stereo unspecified), the inhibition was inactive: 7.59%.
With `CN1CCC(Nc2ccc(Cl)cc2)CC1` the figure was inactive: 1.19%; with `CCOc1ncccc1C(=O)NCC1(N2CCOCC2)CCCCC1`, inactive: -0.98%; with `CN1CCC(Nc2ccc(F)c(Cl)c2)CC1`, inactive: -0.39%.
With `O=c1[nH]c2ccccc2n1C1CCN(C(c2cc3ccccc3o2)c2nnnn2C2CCCC2)CC1` (stereo unspecified) the figure was inactive: 8.4%.
With `CCCOc1ccc(C(=O)NCC2(N(C)C)CCCCC2)cc1` the figure was inactive: 0.93%; with `CC(C)(C)OC(=O)N1CCC(Nc2ccccc2)CC1`, inactive: 0.66%.
As to `O=C(O)C1(Nc2ccccc2)CCN(Cc2ccccc2)CC1`, the inhibition was inactive: 4.33%.
With `N/C(=N\O)c1c(N)no[n+]1[O-]` the figure was inactive: 0.49%; with `CCOC(=O)N1CCC(Nc2ccc(C)cc2)CC1`, inactive: -0.64%.
With `COc1cccc(C(c2nnnn2C(C)(C)C)N2CCC(n3c(=O)[nH]c4ccccc43)CC2)c1OC` (stereo unspecified) the figure was inactive: 10.8%.
For the molecule `CCCCn1nnnc1C(c1cccc(OC)c1OC)N1CCC(n2c(=O)[nH]c3ccccc32)CC1` (stereo unspecified), the inhibition was inactive: 10.3%.
With `O=C(OC1CN2CCC1CC2)C1c2ccccc2C=Cc2ccccc21` (stereo unspecified) the figure was inactive: -1.46%; with `O=c1[nH]c2ccccc2n1C1CCN(C(c2cccs2)c2nnnn2C2CCCC2)CC1` (stereo unspecified), inactive: 6.99%; with `O=C(NCC1(N2CCOCC2)CCCCC1)c1cc(Br)ccc1Cl`, inactive: -0.26%.
Consider `CCCCn1nnnc1C(c1ccccc1)N1CCC(n2c(=O)[nH]c3ccccc32)CC1` (stereo unspecified), for which the inhibition was inactive: 4.04%.
With `COc1cc(C(=O)NCC2(N3CCOCC3)CCCCC2)cc(OC)c1C` the figure was inactive: 2.36%.
For the molecule `COc1ccc(C(=O)NCC2(N3CCOCC3)CCCCC2)cc1OC`, the inhibition is inactive: -0.98%.
Take `O=c1[nH]c2ccccc2n1C1CCN(C(c2ccnc3ccccc23)c2nnnn2C2CCCC2)CC1` (stereo unspecified): the inhibition was inactive: 3.71%.
With `O=c1[nH]c2ccccc2n1C1CCN(C(c2cccs2)c2nnnn2C2CCCCC2)CC1` (stereo unspecified) the figure was active: 27.4%; with `c1ccc(CN2CCC(Nc3ccccc3)CC2)cc1`, inactive: -0.24%.
With `CCCN1CCC(Nc2cc(OC)cc(OC)c2)CC1` the figure was inactive: 0.36%.
Turning to `O=c1[nH]c2ccccc2n1C1CCN(C(c2ccccc2)c2nnnn2C2CCCC2)CC1` (stereo unspecified), the inhibition was inactive: 7.02%.
With `Cc1cc(N(CCCl)CCCl)ccc1C=O` the figure was inactive: 5.71%.
With `CN(C)C1(CNC(=O)c2cccc(C#N)c2)CCCCC1` the figure was inactive: 2.18%; with `CC(C)(C)n1nnnc1C(c1cccc2ccccc12)N1CCC(n2c(=O)[nH]c3ccccc32)CC1` (stereo unspecified), inactive: 4.2%; with `CC(C)(C)OC(=O)N1CCC(N(C(=O)c2ccccc2)c2ccc(Cl)cc2)CC1`, inactive: -1.52%.
With `N#Cc1ccc(C(=O)NCC2(N3CCCCC3)CCCCC2)cc1` the figure was inactive: 1.08%; with `O=C(NCC1(N2CCCCC2)CCCCC1)c1cccc(C(F)(F)F)c1`, inactive: 3.62%; with `COc1ccc(NC2CCN(C(=O)OC(C)(C)C)CC2)cc1`, inactive: 0.23%.
On to `CC(C)c1ccc(C(=O)NCC2(N3CCOCC3)CCCCC2)cc1`, for which the inhibition was inactive: 0.27%.
With `CN1CCN(CCOC(=O)C(O)(c2ccccc2)c2ccccc2)CC1` the figure was inactive: -0.02%; with `CCCCn1nnnc1C(c1cccc2ccccc12)N1CCC(n2c(=O)[nH]c3ccccc32)CC1` (stereo unspecified), inactive: -1.32%.
With `O=C(NCC1(N2CCOCC2)CCCCC1)c1cc(=O)[nH]c2ccccc12` the figure was inactive: -0.79%; with `COc1cc(C(=O)NCC2(N3CCCCC3)CCCCC2)ccc1OC(F)F`, inactive: 2.1%; with `CC(C)(C)n1nnnc1C(c1ccccc1OC(F)(F)F)N1CCC(n2c(=O)[nH]c3ccccc32)CC1` (stereo unspecified), inactive: 2.77%.
With `O=C(NCC1(N2CCCCC2)CCCCC1)c1ccc(OC(F)F)cc1` the figure was inactive: 1.45%; with `O=C(NCC1(N2CCCCC2)CCCCC1)c1cccc([N+](=O)[O-])c1`, inactive: 0.69%.
For `CSc1ccc(C(=O)NCC2(N3CCOCC3)CCCCC2)cc1`, the inhibition is inactive: 5.38%.
With `CCN1CCC(Nc2ccc(Cl)cc2)CC1` the figure was inactive: -1.16%.
With `O=c1[nH]c2ccccc2n1C1CCN(C(c2ccccc2OC(F)(F)F)c2nnnn2C2CCCC2)CC1` (stereo unspecified) the figure was inactive: 0.17%; with `N#CC1(Nc2ccccc2)CCN(CCc2ccccc2)CC1`, inactive: 3.52%.
With `CN1CCC(Nc2cccc(F)c2)CC1` the figure was inactive: -2.28%.
On to `O=C(NCC1(N2CCCCC2)CCCCC1)c1cncc(Br)c1`, for which the inhibition is inactive: 0.64%.
